Earlier results on one substance are cited in publication PMC8356907 (Current analytical chemistry, 2021).

pKi: −log10 of the molar value.

This data set concerns the target T1, recombinant human caspase 3 (Homo sapiens, UniProt P42574).
T1 sequence (P42574 29-175 limits assumed): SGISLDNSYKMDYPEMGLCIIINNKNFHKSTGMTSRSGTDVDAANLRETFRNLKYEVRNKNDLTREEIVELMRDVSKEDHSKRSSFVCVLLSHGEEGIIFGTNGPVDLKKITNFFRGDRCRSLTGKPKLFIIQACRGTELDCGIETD
T1 sequence (P42574 176-277 limits assumed): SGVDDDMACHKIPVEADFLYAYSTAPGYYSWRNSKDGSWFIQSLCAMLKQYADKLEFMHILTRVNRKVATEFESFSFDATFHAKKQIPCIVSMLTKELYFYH
As to conditions: read-out: Ki of Ac-DEVD-CHO for caspase 3; mean literature value; cited from earlier work.

As to Ac-DEVD-CHO, the negative-log Ki (pKi) (usually the negative decadic logarithm of the Ki, by convention in mol/L) was 9.64.
